By UniProt entry, the sequences of proteins in these tests, tags left out. Residues count along the entry.
UniProt Q9NZC2, 19-230 limits assumed: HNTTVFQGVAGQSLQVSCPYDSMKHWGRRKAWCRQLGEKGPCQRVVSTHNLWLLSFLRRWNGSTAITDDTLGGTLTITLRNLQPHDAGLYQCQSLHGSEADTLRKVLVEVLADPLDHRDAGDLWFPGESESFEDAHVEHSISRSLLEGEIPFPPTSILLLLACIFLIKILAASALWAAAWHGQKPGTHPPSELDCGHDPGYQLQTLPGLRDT
UniProt O43914, 22-113 partner limits assumed: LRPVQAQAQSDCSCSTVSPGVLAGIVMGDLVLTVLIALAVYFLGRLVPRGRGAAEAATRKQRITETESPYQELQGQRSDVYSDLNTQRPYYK

In patent publication US20260152484A1, “HETEROCYCLIC COMPOUNDS AS TRIGGERING RECEPTOR EXPRESSED ON MYELOID CELLS 2 AGONISTS” (Vigil Neuroscience, Inc., priority 2021, published 2026):

Target: human TREM2 (Homo sapiens, UniProt Q9NZC2)
Assay: Cellular phosphorylation of Syk (AlphaLisa) in HEK293T-hTREM2 cells, TREM2 agonist potency
Conditions: read-out: hTREM2 EC50; HEK293 cells expressing human TREM2 and DAP12; pSyk AlphaLisa; Table D-2
Description: In Vitro Measurement of Triggering Receptor Expressed on Myeloid Cells 2 Activity Using Cellular Phosphorylation of Spleen Tyrosine Kinase (“Syk”) Assays
Measurement of TREM2 agonist potency was done using a HEK cell line expressing human TREM2 and DAP12 (HEK293T-hTREM2 cells). Binding of small molecules to, and activation of, TREM2 increases the phosphorylation of Syk. The resultant levels of Syk phosphorylation are measured using a commercial AlphaLisa reagent kit. To perform the assay, HEK-hTREM2 cells were plated at 14,000 cells per well in a 384 well plate, in 25 μL of complete growth media and incubated at 37° C., 5% CO2 for 20-24 hours.
Prior to the assay, test compounds were diluted in the 384 well plates in assay buffer and allowed to equilibrate for 30 minutes. Growth media was removed from cell plates by inversion on blotting paper, and 25 μL of test articles in assay buffer was added to cells. Cells were incubated for 45 minutes at room temperature. […] After complete lysis, AlphaLisa reagents were added to the lysate, and fluourescence intensity was measured using a Perkin Elmer Envision plate reader. Intensities were used to generate a standard curve, and % activation was calculated. Curve fitting was performed using Prism v9 software, log(agonist) vs response—variable slope (four parameters), and EC50s were calculated from the curve fit. […]

Cc1cc2c(-c3ccc(Cl)cc3)nn(-c3ccnc(OC4CN(C(=O)OC(C)(C)C)C4)c3)c(=O)c2nc1C gave an EC50 of 500 to 3000 nM.
